Data reported in ChEMBL document CHEMBL3808290, “Discovery of Potent, Orally Bioavailable Inhibitors of Human Cytomegalovirus” (ACS Med Chem Lett, 2016).

What was measured:
[1] = Metabolic stability of compound in rat hepatocytes relative to hepatic blood flow; type: ADME, cell-based, Hepatocyte; conditions: read-out: Stability
[2] = Metabolic stability of compound in human hepatocytes relative to hepatic blood flow; type: ADME, cell-based, Hepatocyte; conditions: read-out: Stability
Rattus norvegicus = species: Rattus norvegicus; assay: Clearance in rat relative to hepatic blood flow; type: ADME, organism-based, Liver; conditions: in vivo

SMILES: CC(O)(c1cccc(C(F)(F)F)c1)c1nc(-n2ccc(NC(=O)c3cscn3)cc2=O)c[nH]1 (stereo not drawn)
- hepatic extraction ratio [1]: 0.095
- hepatic extraction ratio [2]: 0.17
- CL (Rattus norvegicus): 24%
